High-throughput results: PubChem BioAssay, National Center for Advancing Translational Sciences (NCATS)
Shown are actives, neighbours in structure and some others; about 16% of the full set was active somewhere.
miR-21 reporter – miR-21 reporter, rising signal. 340,000 tested, under 10 active. Potency, µM (highest dose often 38.3 µM), for the others: at the highest dose reporter change, positive = more light. HeLa miR-21 FLuc reporter, luciferase, 48 h. AID 2288; active = well fitted rising curve with a large enough effect; inconclusive = small, poorly fitted or top-dose-only effect; inactive = no such curve, though single readings can be large or run the other way;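 further: % of control where 0% means no effect; miR-21 action dims this reporter so a rising signal means less miR-21 action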
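Luminescence from a firefly luciferase reporter carrying a miR-21 binding site downstream, stably expressed under a CMV promoter in HeLa cells that make miR-21 endogenously, reports miRNA modulation after 48 h compound exposure up to approximately 40uM final.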
TDP1 inh – blocks human tyrosyl-DNA phosphodiesterase 1; Q9NUW8; recombinant TDP1, AlphaScreen DNA substrate cleavage; Potency, µM (doses to about 130 µM), without a hit: at the top dose activity change, negative = inhibition, hits mostly inhibitors; hit rate 0.28% among 350,000; note: potency is the fitted concentration of half-maximal effect; % is set by controls: 0 for no effect and ±100 for the full control effect; nearly all actives have a fitted effect of over 40% in size
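Compounds were preincubated with Tdp1 (1 nM final) for 15 min at room temperature before substrate (15 nM final) started a 5 min reaction; beads (10 ug/ml final) were then added for 10 min before AlphaScreen detection.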
uPA surface inh – inhibitors of cell surface uPA generation. cell surface uPA generation assay, qHTS. Potency, µM (highest dose often 38.3 µM), without a hit: at the highest dose activity change, negative = inhibition, most hits filed as inhibitors. hit rate 0.31% among 330,000; active = well fitted inhibition curve with a large enough effect; inconclusive = small, poorly fitted or top-dose-only effect; inactive = no such curve, though single readings can be large or run the other way; tested in mouse RAW 264.7 cells; note: potency is the fitted concentration of half-maximal effect; % is set by controls: 0 for no effect and ±100 for the full control effect; nearly all actives have a fitted effect of over 55% in size
DT40 TDP1 no CPT – qHTS for Inhibitors of human tyrosyl-DNA phosphodiesterase 1 (TDP1): qHTS in cells in absence of CPT; DT40 Tdp1-/- hTDP1 cells, no CPT, ATP luminescence, 48 h; Potency, µM (series often up to 46.2 µM), inactives show top-dose activity change, negative = growth inhibition, most hits filed as inhibitors; hit rate 15% among 420,000; note: potency is the fitted concentration of half-maximal effect; % is set by controls: 0 for no effect and ±100 for the full control effect; nearly all actives have a fitted effect of over 55% in size
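Seeded 400 DT40-hTDP1 cells/well (vehicle DMSO, no 20 nM CPT); pinned compounds; ≥48 hr at 37 °C; CellTiter-Glo luminescence as viability measure.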
TDP1 cell CPT – DT40-hTDP1 cell growth loss with CPT; chicken DT40 Tdp1-/-;hTDP1 cells + 20 nM CPT, ATP luminescence, 48 h; Potency, µM (doses to about 46.2 µM), without a hit: at the highest dose activity change, negative = growth inhibition, most hits filed as inhibitors; hit rate 12% among 420,000; AID 686979; note: potency is the fitted concentration of half-maximal effect; % is set by controls: 0 for no effect and ±100 for the full control effect; nearly all actives have a fitted effect of over 55% in size
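Chicken DT40 Tdp1-/- cells complemented with human TDP1, 400 cells/well, exposed to compounds plus 20 nM camptothecin for at least 48 h at 37 C; viability read as ATP content by CellTiter-Glo luminescence.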
* hit, by the source's call; ? = inconclusive; . = not tested or not shown; [ ] = dose if it differs, or a comment. Unless noted, calls come from the whole dose curve; as a rule, active = well fitted curve in the direction sought with a large enough effect; inconclusive = small, poorly fitted or top-dose-only effect, or another doubt; inactive = no such curve, though single readings can be large; an effect the other way counts as inactive or inconclusive.

#1 CCOc1ccc(-c2nc(CSCC(=O)N3CCN(c4cccc(C(F)(F)F)c4)CC3)c(C)o2)cc1
#2 COc1ccc(-c2nc(CSCC(=O)N3CCN(C)CC3)c(C)o2)cc1OC
#3 COc1ccc(-c2nc(CSCC(=O)N3CCN(c4ccc(OC)cc4)CC3)c(C)o2)cc1
#4 COc1ccc(-c2nc(CSCC(=O)N3CCN(c4cc(Cl)ccc4C)CC3)c(C)o2)cc1
#5 O=C(NCC(=O)N1CCN(c2ccccc2)CC1)c1ccc(Cl)cc1
assay / entry,1,2,3,4,5
TDP1 inh,2%,1%,2%,7%,.
DT40 TDP1 no CPT,10µM*,0%,10µM*,16µM*,-9%
TDP1 cell CPT,21µM*,-5%,?,13µM*,6%
miR-21 reporter,20%,-5%,14%,?,4%
uPA surface inh,.,2%,.,.,4%

#6 CCc1ccc(/C=C2\SC(=S)N(CCCC(=O)Nc3cc(C)on3)C2=O)cc1
#7 COC(=O)Cc1ccc(NC(=S)NCCSc2ccc(Cl)cc2)cc1
#8 Cc1cc(C)cc(NC(=S)NCCSc2ccc(Cl)cc2)c1
#9 CCCCCOC(=O)CSc1ncnc2sc3c(c12)CCC(C)C3 (configuration not stated)
#10 CN(C)CCCNC(=O)C(=O)Nc1cc2c3c(c1)CC(=O)N3CCC2
assay / entry,6,7,8,9,10
TDP1 inh,.,4%,-3%,.,2%
DT40 TDP1 no CPT,-2%,21µM*,21µM*,-11%,2%
TDP1 cell CPT,-1%,?,?,-15%,-2%
miR-21 reporter,.,8%,0%,-1%,-3%
uPA surface inh,.,-1%,2%,.,5%

#11 CCN(CC)C(=O)c1[nH]cnc1C(=O)NCCCCCNC(=O)OC(C)(C)C
#12 CC(C)(C)OC(=O)NCCCCCNC(=O)c1[nH]cnc1C(=O)Nc1cc(Br)ccc1F
#13 CC(C)(C)OC(=O)NCc1ccc(NC(=O)c2nc[nH]c2C(=O)Nc2cc(Br)ccc2F)cc1
#14 O=C(CC(c1ccccc1)c1ccccc1)NCCO
#15 Nc1ccc(CSc2ccc(Cl)cc2)cc1
assay / entry,11,12,13,14,15
TDP1 inh,0%,.,.,2%,1%
DT40 TDP1 no CPT,-3%,5.8µM*,13µM*,-2%,-2%
TDP1 cell CPT,-2%,12µM*,10µM*,-17%,15%
miR-21 reporter,.,.,.,-4%,-9%
uPA surface inh,-3%,.,.,5%,-5%

#16 CCOc1ccc(/C=N/NC(=O)c2cc3c(OC)cc(OC)cc3[nH]2)cc1OC
#17 C=CCOc1ccc(/C=N/NC(=O)c2cc3c(OC)cc(OC)cc3[nH]2)cc1
#18 CCc1ccc(-n2c(SCC(=O)N3Cc4ccccc4CC3C(=O)O)nnc2-c2ccncc2)cc1 (configuration not stated)
#19 COc1cccc(C(=O)Nc2nc3nc(C)c(C)c(=O)n3[nH]2)c1
#20 CC1(C)CCC[C@]2(C)C3CC(=O)O[C@@]3(C)CC[C@H]12 (some centres not stated)
assay / entry,16,17,18,19,20
TDP1 inh,.,.,.,2%,-3%[56.1 µM]
DT40 TDP1 no CPT,16µM*,26µM*,-7%,-5%,?
TDP1 cell CPT,13µM*,?,0%,-10%,0%
miR-21 reporter,-1%,3%,-2%,2%,.
uPA surface inh,-9%,-28%,8%,.,.

Given with bars between the fields: part of the list above.
entry | Structure | TDP1 inh | DT40 TDP1 no CPT | TDP1 cell CPT | miR-21 reporter | uPA surface inh
17 | C=CCOc1ccc(/C=N/NC(=O)c2cc3c(OC)cc(OC)cc3[nH]2)cc1 | . | 26µM* | ? | 3% | -28%
18 | CCc1ccc(-n2c(SCC(=O)N3Cc4ccccc4CC3C(=O)O)nnc2-c2ccncc2)cc1 (configuration not stated) | . | -7% | 0% | -2% | 8%
19 | COc1cccc(C(=O)Nc2nc3nc(C)c(C)c(=O)n3[nH]2)c1 | 2% | -5% | -10% | 2% | .
20 | CC1(C)CCC[C@]2(C)C3CC(=O)O[C@@]3(C)CC[C@H]12 (some centres not stated) | -3%[56.1 µM] | ? | 0% | . | .

Continuation.
#21 Cc1cc(O)c2c(c1)O[C@@]1(C)CC[C@H]3C(C)(C)CCCC34CO[C@@H]2[C@H]41 (some centres not stated)
#22 Cc1ccc2nc3c(c(N)c2c1)CCN3C
#23 CCCCN1CCc2c1nc1ccc(Br)cc1c2N
#24 COc1ccc(OC)c2c1C(=O)C(Cl)=C(Cl)C2=O
#25 CCOc1ccc(N(C)S(=O)(=O)c2ccc3[nH]cc(C(=O)NCC4CCCO4)c(=O)c3c2)cc1 (configuration not stated)
assay / entry,21,22,23,24,25
TDP1 inh,.,.,6%,.,1%
DT40 TDP1 no CPT,17µM*,?,23µM*,0.41µM*,?
TDP1 cell CPT,?,?,?,0.23µM*,?
miR-21 reporter,.,-2%,-3%,27%,19%
uPA surface inh,.,-5%,10%,?,4%

#26 CCc1cc(C(=O)N=Nc2c(O)[nH]c3c(Br)cc(Br)cc23)c2ccccc2n1
#27 CCC1(CC)C(=O)C2=C3C1[C@H](C(=O)OC)CC(C(=O)OC)C[C@H]3n1c(=O)n(-c3ccccc3)c(=O)n1[C@H]2C (some centres not stated)
#28 COc1ccc(NC(=O)Cn2cnc3ccc(S(=O)(=O)N4CCC(C)CC4)cc3c2=O)cc1Cl
#29 CC1CCN(S(=O)(=O)c2cn(CC(=O)Nc3ccc(F)c(Cl)c3)c(=O)c3ccccc23)CC1
#30 CCCCOc1ccc(C(=O)Nc2ccc(-c3cc4ccccc4oc3=O)cc2)cc1
assay / entry,26,27,28,29,30
TDP1 inh,3%,5%,-2%,0%,-1%[12.3 µM]
DT40 TDP1 no CPT,?,-9%,4.1µM*,23µM*,5%
TDP1 cell CPT,21µM*,-24%,7.3µM*,23µM*,-5%
miR-21 reporter,-10%,.,-9%,30%,-2%
uPA surface inh,-11%,-10%,.,.,.

#31 CCOc1cc(N2CCOCC2)c(OCC)cc1NC(=O)CCC1CCCC1
#32 COc1ccc(NC(=O)CN(C)CC(=O)Nc2ccc(N3CCOCC3)cc2)c([N+](=O)[O-])c1
#33 CN(CC(=O)Nc1ccc(N2CCOCC2)cc1)CC(=O)Nc1ccc(Cl)cc1[N+](=O)[O-]
#34 Cc1ccc(C)c(OCCC(=O)OCC(=O)Nc2cccnc2Cl)c1
#35 Cc1ccc(C)c(OCCC(=O)OCC(=O)Nc2ccc(Cl)cn2)c1
assay / entry,31,32,33,34,35
TDP1 inh,5%,8%,-1%,.,0%
DT40 TDP1 no CPT,18µM*,?,26µM*,?,-9%
TDP1 cell CPT,16µM*,4%,?,15µM*,-5%
miR-21 reporter,-1%,-8%,-24%,.,.
uPA surface inh,3%,-9%,-5%,-6%,2%

#36 CCOc1cc(N2CCOCC2)c(OCC)cc1NC(=O)CN1CCCC1
#37 CCOc1cc(N2CCOCC2)c(OCC)cc1NC(=O)C1CCCC1
#38 Cc1ccc(CNC(=O)c2ccc3c(c2)NC(=O)C(CS(=O)(=O)Cc2ccc(F)cc2)N3)cc1 (configuration not stated)
#39 COc1ccc(OC)c(C2NC(=O)CCC2[N+](=O)[O-])c1 (configuration not stated)
#40 CCCc1c(C)nc(N2CCN(c3ccccc3F)CC2)[nH]c1=O
assay / entry,36,37,38,39,40
TDP1 inh,-8%,6%,0%,.,.
DT40 TDP1 no CPT,-5%,29µM*,?,23%,-26%
TDP1 cell CPT,10%,?,?,-15%,-22%
miR-21 reporter,-3%,-18%,0%,-2%,-3%
uPA surface inh,0%,1%,.,-8%,2%

#41 Cc1ccccc1-c1cc(Nc2ccccc2)ncn1
#42 CN(CC(=O)Nc1ccc(Cl)cc1)CC(=O)Nc1cc(Cl)ccc1C#N
#43 CC(Oc1cccc(Cl)c1)C(=O)Nc1cc(=O)n(C)c(=O)n1C (configuration not stated)
#44 CCOc1cc(N2CCOCC2)c(OCC)cc1NC(=O)CCS(=O)(=O)c1ccc(Cl)cc1
#45 CN(CC(=O)Nc1ccc(Cl)cc1)CC(=O)Nc1ccc(C(N)=O)cc1
#46 CCOc1cc(N2CCOCC2)c(OCC)cc1NS(=O)(=O)c1ccc(Cl)s1
assay / entry,41,42,43,44,45,46
TDP1 inh,.,0%,-1%,4%,2%,?
DT40 TDP1 no CPT,-18%,23µM*,13µM*,1.8µM*,-18%,2.9µM*
TDP1 cell CPT,-24%,?,?,4.1µM*,-16%,4.6µM*
miR-21 reporter,.,1%,-5%,-3%,-1%,17%
uPA surface inh,.,-19%,.,5%,-4%,-11%
